Source: BindingDB's records for doi:10.1021/jm0201924 (Senju Pharmaceutical, 2003)

Chains of the proteins cited; added tags and fusions are not shown.
UniProt P05177, whole entry: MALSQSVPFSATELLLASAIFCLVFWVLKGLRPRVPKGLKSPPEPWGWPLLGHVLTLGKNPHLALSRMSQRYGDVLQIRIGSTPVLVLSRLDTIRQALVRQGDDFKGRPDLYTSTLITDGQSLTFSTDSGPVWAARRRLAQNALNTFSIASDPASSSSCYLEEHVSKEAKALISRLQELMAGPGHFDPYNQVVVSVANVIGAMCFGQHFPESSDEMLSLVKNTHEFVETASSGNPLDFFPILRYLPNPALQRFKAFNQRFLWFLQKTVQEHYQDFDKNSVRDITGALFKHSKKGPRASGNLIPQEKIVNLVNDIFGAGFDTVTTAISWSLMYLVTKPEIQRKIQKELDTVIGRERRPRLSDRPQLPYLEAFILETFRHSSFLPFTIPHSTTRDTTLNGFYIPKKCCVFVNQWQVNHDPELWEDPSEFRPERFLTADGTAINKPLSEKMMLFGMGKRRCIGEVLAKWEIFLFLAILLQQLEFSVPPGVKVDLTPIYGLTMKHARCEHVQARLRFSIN

Molecular target: Cytochrome P450 1A2 (Homo sapiens, UniProt P05177)
Test: Inhibition of Cytochrome P450 1A2

IC50: > 1000 µM
Compound: CC(C)C[C@H](C=O)NC(=O)[C@@H](NS(=O)(=O)c1ccc(F)cc1)C(C)C [2-(4-Fluoro-benzenesulfonylamino)-N-(1-formyl-3-methyl-butyl)-3-methyl-butyramide]
